Laboratory results from ChEMBL document CHEMBL1133160, “Molecular modeling of the aldose reductase-inhibitor complex based on the X-ray crystal structure and studies with single-site-directed mutants” (J Med Chem, 2000).

Target: Aldo-keto reductase family 1 member B1 (Homo sapiens, UniProt P15121)
Assay: Inhibitory Activity against Human recombinant Aldose Reductase (wild type)

IC50: 36.4 nM
Compound: O=C(O)Cc1nn(Cc2nc3cc(C(F)(F)F)ccc3s2)c(=O)c2ccccc12 [ZOPOLRESTAT]
